Only a part is listed here, and it is no random draw. Activity calls are given as the source filed them.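 Rule for the calls: active = inhibition above a per-plate cutoff, the mean inhibition of test compounds on that plate plus 3 SD (cut at about 49% in these data); inactive = the rest.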
target: Trace amine-associated receptor 1 (Homo sapiens) (UniProt Q96RJ0); test: human TAAR1 antagonists, primary screen, Fluo-8 calcium fluorescence, CHO RD-HGA16 cells (AID 624466); conditions: CHO RD-HGA16 TAAR1, Fluo-8 calcium fluorescence, antagonist; at 3 µM; stronger effect = higher value;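 note: 0% = DMSO plus EC80 beta-PEA response and 100% = DMSO alone without agonist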

The chains behind the UniProt entries cited, without tags or fusion partners.
UniProt Q96RJ0, whole entry: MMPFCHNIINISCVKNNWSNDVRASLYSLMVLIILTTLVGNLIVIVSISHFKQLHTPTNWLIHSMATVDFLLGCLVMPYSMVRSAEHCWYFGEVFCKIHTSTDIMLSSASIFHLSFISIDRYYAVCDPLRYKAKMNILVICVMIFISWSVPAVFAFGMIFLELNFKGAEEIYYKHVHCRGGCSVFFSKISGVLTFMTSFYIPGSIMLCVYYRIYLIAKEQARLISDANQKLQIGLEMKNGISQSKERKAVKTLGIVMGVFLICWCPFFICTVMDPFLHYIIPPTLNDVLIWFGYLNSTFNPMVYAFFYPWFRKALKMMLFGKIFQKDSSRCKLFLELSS

Question: How did the inhibition turn out when `CCC(=O)N(c1ccccc1)C1(COC)CCN(CCn2nnn(CC)c2=O)CC1` was run?
Answer: The inhibition was inactive: -14.7%.

Question: How did the inhibition turn out when `CCC(=O)N(c1ccccc1)C1(COC)CCN(CCc2cccs2)CC1` was run?
Answer: The inhibition was inactive: 9.28%.

— PubChem BioAssay AID624466 (The Scripps Research Institute Molecular Screening Center, 2012)
